Source: US11129831B2 (dated 2021)

How the values were obtained:
[1] = test system: apomorphine (APO)-induced climbing behavior; conditions: result in words
catalepsy = assay: Catalepsy bar test; conditions: for catalepsy AED50 (adverse effect dose), bar test: rats, ip

SMILES | antipsychotic activity in animal models of schizophrenia (FIG. 10A) [1] | catalepsy at 6×ED50 (FIG. 10B) (catalepsy; 6×ED50 values, result in words) | catalepsy AED50 (adverse effect dose), bar test (catalepsy) [mg/kg]
Fc1ccc(CCCCN2CCN(c3ccccn3)CC2)cc1 [SYA16263] | dose-dependent antipsychotic activity | no catalepsy | > 75
Fc1ccc(OCCCN2CCN(c3ccccn3)CC2)cc1 [SYA16264] | – | – | > 83.5
